Tests used:
[1] = system: C57BL/6 mice exposed to Cl2 gas; test: Cl2-induced chronic lung injury (14 days), intramuscular AMD3100; conditions: AMD3100 0.05 mg/kg IM 1 hour post Cl2 (500 ppm, 30 min)
[2] = system: C57BL/6 mice exposed to Cl2 gas; test: Cl2-induced acute lung injury, intramuscular AMD3100
[3] = AMD3100 0.05 mg/kg IM 1 hour post Cl2 (500 ppm, 30 min), 1 day post exposure, vs Cl2+saline
[4] = AMD3100 0.05 mg/kg IM 1 hour post Cl2 (500 ppm, 30 min), vs Cl2+saline

Structure (SMILES): c1cc(CN2CCCNCCNCCCNCC2)ccc1CN1CCCNCCNCCCNCC1
- chronic inflammatory sequelae in lungs (fibrotic and emphysematous changes) [1]: prevented
- peribronchial collagen deposition (trichrome staining) ([1]; 14 days post exposure, vs Cl2+saline): attenuated
- plasma IL-6 [2, 3]: reduced
- plasma TNF-α [2, 3]: reduced
- neutrophil elastase activity in BALF [2, 4]: reduced
- neutrophil elastase activity in plasma [2, 4]: reduced
- lung injury and mortality (anticipated) ([2]; anticipated, AMD3100 intramuscularly and intranasally in Cl2 exposed mice): improve lung injury and mortality
- mean difference in BALF protein levels, Cl2+saline vs. Cl2+AMD3100 ([2]; preliminary experiments (FIG. 5A), pooled standard deviation 0.202409): 0.2627

Reference: patent US20230127198A1, “COMPOSITIONS AND METHODS FOR THE TREATMENT OF TOXIC GAS EXPOSURE” (published 2023)
